Patent US20110191897A1, “Plants Tolerant to HPPD Inhibitor Herbicides” (Bayer CropScience AG, priority 2009, published 2011)

Chains of the proteins cited; added tags and fusions are not shown. Lines headed by an entry give the natural chain unless they say otherwise; changes in a name come on top.
UniProt A8R3H6, entry or part of it: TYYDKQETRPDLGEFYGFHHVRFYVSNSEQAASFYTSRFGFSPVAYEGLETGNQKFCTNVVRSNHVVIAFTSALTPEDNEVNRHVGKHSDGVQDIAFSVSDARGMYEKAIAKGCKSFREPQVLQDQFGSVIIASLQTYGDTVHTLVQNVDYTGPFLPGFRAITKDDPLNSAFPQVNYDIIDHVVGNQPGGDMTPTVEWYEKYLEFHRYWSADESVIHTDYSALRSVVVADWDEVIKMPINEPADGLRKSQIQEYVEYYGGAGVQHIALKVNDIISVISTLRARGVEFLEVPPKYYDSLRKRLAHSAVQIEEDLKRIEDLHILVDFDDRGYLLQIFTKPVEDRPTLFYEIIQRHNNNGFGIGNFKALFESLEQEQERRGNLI
UniProt P93836: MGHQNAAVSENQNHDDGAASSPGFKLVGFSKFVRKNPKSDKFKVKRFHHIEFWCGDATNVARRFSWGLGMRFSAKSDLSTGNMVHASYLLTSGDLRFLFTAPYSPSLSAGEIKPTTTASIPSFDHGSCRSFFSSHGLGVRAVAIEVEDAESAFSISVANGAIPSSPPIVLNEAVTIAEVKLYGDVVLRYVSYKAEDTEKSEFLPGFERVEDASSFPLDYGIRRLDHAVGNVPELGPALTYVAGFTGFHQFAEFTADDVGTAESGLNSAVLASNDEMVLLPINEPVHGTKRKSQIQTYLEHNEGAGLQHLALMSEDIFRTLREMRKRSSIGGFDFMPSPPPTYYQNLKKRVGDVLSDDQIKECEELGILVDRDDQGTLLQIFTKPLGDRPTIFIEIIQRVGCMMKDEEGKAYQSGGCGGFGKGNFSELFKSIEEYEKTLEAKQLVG

How the values were obtained:
[1] = target: T1, Blepharisma japonicum HPPD (SEQ ID No. 5) (Blepharisma japonicum, UniProt A8R3H6); test: biochemical; conditions: for inhibition at 5 µM: read-out: percentage of inhibition
[2] = target: T2, Arabidopsis thaliana HPPD (SEQ ID No. 10) (Arabidopsis thaliana, UniProt P93836); test: Spectrophotometric HPPD activity assay in presence of HPPD inhibitors; assay type: biochemical
T2 construct: made in house; host or cells: E. coli K-12 BL21 (pQE30-AtHPPD)
T2 sequence (P93836 with tags, fused parts or gaps): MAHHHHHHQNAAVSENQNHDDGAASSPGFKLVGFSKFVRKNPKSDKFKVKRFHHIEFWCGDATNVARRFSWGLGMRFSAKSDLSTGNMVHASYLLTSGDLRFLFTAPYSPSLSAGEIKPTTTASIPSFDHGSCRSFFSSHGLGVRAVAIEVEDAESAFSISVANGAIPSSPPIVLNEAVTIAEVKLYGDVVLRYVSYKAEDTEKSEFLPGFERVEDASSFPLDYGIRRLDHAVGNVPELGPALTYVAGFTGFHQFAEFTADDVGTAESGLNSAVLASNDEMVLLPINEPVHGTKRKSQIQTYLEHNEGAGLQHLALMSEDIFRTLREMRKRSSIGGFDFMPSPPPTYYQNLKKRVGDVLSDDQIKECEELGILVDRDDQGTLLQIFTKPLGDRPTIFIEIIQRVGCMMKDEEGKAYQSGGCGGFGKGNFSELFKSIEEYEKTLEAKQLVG

[3] = target: T2, Arabidopsis thaliana HPPD (SEQ ID No. 10); test: HPLC assay of HPPD in vitro kinetic properties; assay type: biochemical
Description: (§1) Km, Vmax, and kcat values for different HPPD enzyme preparations and Ki, K1=Kon, and K−1=Koff for different HPPD inhibitors were determined using a HPLC assay for measurements of HPPD activity. […] All assays were started by the addition of HPPD enzyme to the assay mixture and stopped at a series of times between 0 and 240 s by addition of 200 μl of the reaction mixture to reaction assay tubes containing 20 μl 10% perchloric acid. Precipitated protein was pelleted by a 5 minute centrifugation at 10,000 g. 100 μl of the supernatant were loaded onto a 250×4 mm Knauer (Berlin, Germany) Eurospher 100-5 C18-column equilibrated with 10% methanol, 0.1% trifluoroacetic acid (buffer A). […] A standard set of concentrations of HGA were used to provide a standard curve in order to calibrate the 292 nm absorbance of the HGA peak versus HGA concentration.
(§2) For Km and Vmax value determinations the initial rates of the HPPD reaction at different substrate concentrations were determined from plots of HGA formed versus time and fitted to the Michaelis-Menten equation for unireactant enzymes using the ID Business Solutions Ltd. (www.idbs.com) XLfit software suite. For the determination of Ki, K1=Kon, and Ki=Koff values the time-courses of the HPPD reaction at different inhibitor concentrations were fitted to the equations for Mechanism A, competitive inhibition, for tight-binding inhibitors (Cha, S. (1975) Tight-binding inhibitors—I. Kinetic behaviour. Biochemical Pharmacology 24, 2177-2185) using the ID Business Solutions Ltd. XLfit software suite

[4] = target: T1, Blepharisma japonicum HPPD (SEQ ID No. 5); test: HPLC assay of HPPD in vitro kinetic properties; assay type: biochemical
Description: as §1, §2

CS(=O)(=O)c1ccc(C(=O)C2C(=O)CCCC2=O)c(Cl)c1 [Sulcotrione, 2-[2-chloro-4-(methylsulfonyl)benzoyl]-1,3-cyclohexanedione]
IC50 [1]: 15.8 µM
inhibition at 5 µM [1]: 7%

CS(=O)(=O)c1ccc(C(=O)C2C(=O)CCCC2=O)c([N+](=O)[O-])c1 [Mesotrione, 2-[4-(methylsulfonyl)-2-nitrobenzoyl]-1,3-cyclohexanedione]
IC50 [1]: 63.1 µM
inhibition at 5 µM [1]: 0%

CS(=O)(=O)c1ccc(C(=O)C2C(=O)CCCC2=O)c(Cl)c1COCC1CCCO1 (stereo not drawn) [Tefuryltrione, 2-[2-chloro-4-(methylsulfonyl)-3-[[(tetrahydro-2-furanyl)methoxy]methyl]benzoyl]-1,3-cyclohexanedione]
IC50 [2]: < 2.51 µM

CS(=O)(=O)c1cc(C(F)(F)F)ccc1C(=O)C(C#N)C(=O)C1CC1 (stereo not drawn) [Diketonitrile, 2-cyano-3-cyclopropyl-1-(2-methylsulphonyl-4-trifluoromethylphenyl)-propane-1,3-dione]
Ki [3]: 0.018 µM
kon ([4]; read-out: k1 (Kon, association rate constant)): 980 M⁻¹ s⁻¹
koff ([4]; read-out: k−1 (Koff, dissociation rate constant)): 0.0065 s⁻¹
IC50 [2]: < 2.51 µM
